Test system: Schistosoma mansoni
Test: Antischistosomal activity against Schistosoma mansoni assessed as induction of parasite mortality after 8 hrs
Type: functional
Design: concentration or dose not given beside the values

SMILES: COc1ccccc1-c1no[n+]([O-])c1C#N
- Activity: 4%

— ChEMBL document CHEMBL1155233, “Structure mechanism insights and the role of nitric oxide donation guide the development of oxadiazole-2-oxides as therapeutic agents against schistosomiasis” (J Med Chem, 2009)
